Here are results for one molecule from ChEMBL document CHEMBL1152792, “Synthesis and anticonvulsant activity of amino acid-derived sulfamides” (J Med Chem, 2009).

The species named for the assay is Mus musculus. As to the kind of experiment: Ratio of valproic acid ED50 to compound ED50 in albino mouse after 0.25 hrs by MES test. The format is functional.

For `CCCC(CCC)C(=O)O` [VALPROIC ACID], the “Ratio ED50” value is reported as 1.
